ChEMBL document CHEMBL1127305, “kappa Opioid receptor selective affinity labels: electrophilic benzeneacetamides as kappa-selective opioid antagonists” (J Med Chem, 1994)

By UniProt entry, the sequences of proteins in these tests, tags left out. Where a name states a change or a piece, a line headed by the entry shows the natural chain unless it says otherwise.
UniProt P41144: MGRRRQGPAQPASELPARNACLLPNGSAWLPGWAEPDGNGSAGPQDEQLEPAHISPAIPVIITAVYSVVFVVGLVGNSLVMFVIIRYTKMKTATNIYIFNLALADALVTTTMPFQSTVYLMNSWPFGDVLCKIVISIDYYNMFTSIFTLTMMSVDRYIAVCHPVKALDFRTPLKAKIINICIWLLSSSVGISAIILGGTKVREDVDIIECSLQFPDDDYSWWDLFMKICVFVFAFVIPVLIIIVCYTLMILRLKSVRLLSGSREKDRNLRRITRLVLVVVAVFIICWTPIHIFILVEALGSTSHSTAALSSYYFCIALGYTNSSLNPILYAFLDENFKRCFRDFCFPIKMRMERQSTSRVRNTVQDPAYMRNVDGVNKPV
UniProt P97266, whole entry, looked up: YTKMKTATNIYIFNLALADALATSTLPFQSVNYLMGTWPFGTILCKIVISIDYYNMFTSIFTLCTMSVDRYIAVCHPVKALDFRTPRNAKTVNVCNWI

How the values were obtained:
[1] = organism: Mus musculus; assay: Tested for agonist potency by conducting tests on mouse vas deferens preparation
[2] = organism: Mus musculus; assay: Effective dose required to produce equivalent antagonism of U50,488 antinociception in abdominal-stretch assay. Value at peak time of 30 min was reported at <4 h.
[3] = tested on: Mus musculus; assay: In vivo the compound was tested for antinociceptive potency by Mouse abdominal stretch assay; settings: Abdomen
[4] = organism: Mus musculus; assay: Antinociception was determined in tail-flick assay. Compound dose at peak time of 18 hr was reported. Time duration is 72-96 h
[5] = organism: Cavia porcellus; assay: Agonist potency was determined in electrically stimulated guinea pig ileal longitudinal muscle preparation, pre-incubated with 5 and 20 nM norBNI for 15 min; settings: Muscle tissue
[6] = organism: Mus musculus; assay: Tested for antinociceptive potency by Mouse abdominal stretch assay; settings: Abdomen
[7] = organism: Mus musculus; assay: Effective dose required to produce equivalent antagonism of U50,488 antinociception in abdominal-stretch assay. Value at peak time of 30 min was reported at <4 h
[8] = organism: Mus musculus; assay: Dose required to produce equivalent antagonism of U50,488 antinociception was determined in tail-flick assay. Compound dose at peak time of 18 h was reported. Time duration is 72-96 h
[9] = target: T1, Kappa-type opioid receptor (Cavia porcellus, UniProt P41144); assay: Tested for competitive covalent binding of compound against k opioid receptor in guinea pig brain membrane using [3H]U-69593 as radioligand
[10] = target: Mu-type opioid receptor (Cavia porcellus, UniProt P97266); assay: Binding affinity for mu opioid receptor in guinea pig brain membranes; using 2 nM [3H]DAMGO as radioligand
[11] = target: T1, Kappa-type opioid receptor; assay: Tested for competitive covalent binding of compound against k opioid receptor in guinea pig brain membrane; using [3H]U-69593 as radioligand

`CN(C(=O)Cc1ccc(Cl)c(Cl)c1)[C@@H](CN1CCCC1)c1ccccc1` was tested, and the IC50 [1] was 87 nM.

In the case of `CN(C(=O)Cc1ccc(Cl)c(Cl)c1)[C@H](CN1CCCC1)c1ccc(N=C=S)cc1`, the ED50 [2] is reported as 0.71 µmol/kg, the ED50 [3] is reported as 0.71 µmol/kg and the Dose [4] is reported as 4260 nM/kg. It also gave an IC50 [1] of 40 nM.

With `CN(C(=O)Cc1ccc(Cl)c(Cl)c1)[C@H](CN1CCCC1)c1ccccc1` [ICI-199,441] the Ke [5] was 0.05 nM and the ED50 [6] was 0.017 µmol/kg.

`COC(=O)/C=C/C(=O)Nc1cccc([C@@H](CN2CCCC2)N(C)C(=O)Cc2ccc(Cl)c(Cl)c2)c1` gave an IC50 [1] of 5.4 nM.

For `CN(C(=O)Cc1ccc(Cl)c(Cl)c1)[C@H](CN1CCCC1)c1cccc(N=C=S)c1`, the Ke [5] was 0.3 nM, the ED50 [7] was 1.53 µmol/kg and the Dose [8] was 65.4 nM/kg. For the same molecule, the Kd [9] was 2.43 nM, the IC50 [1] was 14.9 nM and the ED50 [6] was 1.53 µmol/kg.

`CN(C(=O)Cc1ccc(Cl)c(Cl)c1)[C@H](CN1CCCC1)c1cccc(N)c1` was tested, and the IC50 [10] was 30.7 nM, the Kd [11] was 3.36 nM and the IC50 [1] was 0.12 nM.

With `COC(=O)/C=C/C(=O)Nc1ccc([C@@H](CN2CCCC2)N(C)C(=O)Cc2ccc(Cl)c(Cl)c2)cc1` the IC50 [1] was 22.7 nM.

With `CN(C(=O)Cc1ccc(Cl)c(Cl)c1)C(CN1CCCC1)c1ccc(N)cc1` (centres undefined) the IC50 [1] was 4.5 nM.
